The numbers were not newly measured in US20060165671A1, “Novel nutraceutical compositions comprising epigallocatechin gallate” (priority 2002, published 2006), which cites them from elsewhere.

The conditions of this series: in vivo, po.

With `CC(C)(CO)[C@@H](O)C(=O)NCCC(=O)NCCSSCCNC(=O)CCNC(=O)[C@H](O)C(C)(C)CO` [pantethine], the “high density lipoprotein (HDL) cholesterol” value is on record as “increase”, the “low density lipoprotein (LDL) cholesterol” value is “progressive decrease”, the total cholesterol result is “progressive decrease” and the triglycerides result was “progressive decrease”.
